Consider one compound from patent US11787780B2 (CORCEPT THERAPEUTICS INCORPORATED, priority 2020, dated 2023).

The chains behind the UniProt entries cited, without tags or fusion partners. Residues count along the entry.
UniProt P04150, 524-758 limits assumed: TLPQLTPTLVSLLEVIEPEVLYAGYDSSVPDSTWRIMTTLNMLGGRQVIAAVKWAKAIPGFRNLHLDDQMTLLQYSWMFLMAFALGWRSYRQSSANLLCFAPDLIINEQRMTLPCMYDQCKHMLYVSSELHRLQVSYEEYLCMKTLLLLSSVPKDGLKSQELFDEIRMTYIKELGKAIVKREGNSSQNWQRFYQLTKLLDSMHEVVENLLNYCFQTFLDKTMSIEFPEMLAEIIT

For assay [1], the system named is induction of TAT by dexamethasone in HepG2 cells. In words: Hep G2 TAT assay (inhibition of dexamethasone-induced TAT). As to conditions: read-out: Hep G2 TAT Ki, challenge of 100 nM dexamethasone, IC50 converted to Ki by Cheng and Prusoff equation.
Assay [2] addresses glucocorticoid receptor (GR) recombinant ligand binding domain (LBD) (Homo sapiens (Human), UniProt P04150). Put plainly: GR binding fluorescence polarisation (FP) assay. As to conditions: read-out: Mean GR Binding IC50, displacement of fluorescently tagged ligand.

Regarding `CCCn1ncc(S(=O)(=O)N2CCN(c3ccc4c(cnn4-c4ccc(F)cc4)c3)C[C@H]2C)c1C`, the Ki in assay [1] turned out to be 1.29 µM. In addition, the IC50 in assay [2] was determined as 0.08 µM.

As a reminder, the Ki is a dissociation constant, usually derived from enzyme kinetics or from competition with a known ligand. As usually defined, the IC50 is the concentration needed to halve the response being measured.
